Assays:
[1] = molecular target: T1, peripheral-type benzodiazepine receptor (PBR) (Homo sapiens, UniProt P30536); experiment: [3H]PK11195 radioligand binding to whole cells (Scatchard analysis, competition); details: 50 μg protein, [3H]PK11195, Scatchard plot
T1 construct: Cells were scraped from 150 mm culture dishes into 5 ml phosphate buffered saline (PBS); endogenous in cells; host or cells: MDA-231, MCF-7 and MCF-7ADR (ADR) human breast cancer cells, whole cells or isolated nuclei
Protocol: (§1) Radioligand Binding Assays—Cells were scraped from 150 mm culture dishes into 5 ml phosphate buffered saline (PBS), dispersed by trituration, and centrifuged at 500×g for 15 min. Cell pellets were resuspended in PBS and assayed for protein concentration. […] Scatchard plots were analyzed by the LIGAND program [Munson, (1980) Anal. Biochem. 107:220]. […] IC50 estimation was performed using the LIGAND program (Munson, 1980, supra).

The chains behind the UniProt entries cited, without tags or fusion partners. Residues count along the entry.
UniProt P30536, 2-169: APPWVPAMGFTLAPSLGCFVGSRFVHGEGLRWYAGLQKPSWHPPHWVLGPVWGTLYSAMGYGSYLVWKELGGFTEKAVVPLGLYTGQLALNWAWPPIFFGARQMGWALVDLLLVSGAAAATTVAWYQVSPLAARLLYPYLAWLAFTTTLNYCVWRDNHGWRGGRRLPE

[2] = molecular target: T1, peripheral-type benzodiazepine receptor (PBR); experiment: [3H]PK11195 binding to isolated nuclei (Scatchard analysis)
Protocol: as §1
Nuclear Uptake of ^3H-Cholesterol—Nuclei were isolated from MDA-231, MCF-7, and as described by Elango et al (1997). […] Samples were then centrifuged at 500×g for 30 min and pellets were washed in […] ice-cold PBS. After a second centrifugation at 500×g for 30 min, 200 ul 1.0 N NaOH was then added to the pellets and incubated overnight at 37° C. After incubation, 200 ul 1.0 N HCl was added and samples were vigorously vortexed. 3 ml scintillation cocktail (Eco-Lite) was then added prior to reading radioactivity on a Wallac 1409 Liquid Scintillation Counter.

**Q.** `CCC(C)N(C)C(=O)c1cc2ccccc2c(-c2ccccc2Cl)n1` (stereo not shown) [PK11195] was tested. Which Kd ([1]; ADR (MCF-7ADR) cells) did it give?
**A.** Its Kd is 1.9 ± 0.47 nM.

**Q.** And the Kd ([1]; MDA-231 cells)?
**A.** Its Kd is 7.8 ± 1.8 nM.

**Q.** And the Kd ([2]; nuclei isolated from MCF-7 cells)?
**A.** The Kd was 7.6 ± 4.6 nM.

**Q.** And the Kd ([2]; nuclei isolated from MDA-231 cells)?
**A.** The Kd was 10.3 ± 8.4 nM.
